{
  "source": "patent US10993433B2",
  "about": "“Method of producing in vitro testicular constructs and uses thereof” (Wake Forest University Health Sciences, priority 2015, dated 2021)",
  "tested_on": "3D human testicular organoids",
  "assay": "Testosterone production (ELISA) after hCG stimulation",
  "format": "cell-based",
  "details": "per 100,000 cells",
  "protocol": "Organoid androgen production was measured using a testosterone high sensitivity ELISA kit (ENZO Testosterone high sensitivity 96-well enzyme immunosorbent assay kit; Enzo Life Sciences, Farmingdale, N.Y.) according to the manufacturer's instructions. The minimum detectible limit was 3.9 pg/mL A total of 20 organoids per time point were used in this assessment, wherein half were stimulated with 2 nM hCG for 3 hours. Following incubation, cell culture supernatant was collected from stimulated and nonstimulated organoids and concentrated 4× using an Eppendorf® Vacufuge®. All samples were assayed in duplicate. A standard curve was generated and used to determine testosterone concentrations. Testosterone levels were determined via optical density at 405 nm wavelength absorbance.\nTo test the ability of 3D human testicular organoids to produce androgens and respond to androgen stimulation in vitro, culture supernatant was measured for total testosterone (n=10) concentration per 100,000 cells before and after stimulation with 2 ng/mL hCG for 3 hours. At day 2, nonstimulated testosterone concentrations were 97.168±17.471 pg/mL, whereas after hCG stimulation, concentrations were 151.325±11.592 pg/mL (FIG. 6F).",
  "data": [
    {"substance": "hCG: hormone used to stimulate organoid androgen (testosterone) production", "values": [
      {"measurement": "testosterone concentration after hCG stimulation", "setting": "day 2, 2 ng/mL hCG for 3 hours, n=10", "result": "151.325 ± 11.592", "unit": "pg/mL"},
      {"measurement": "testosterone concentration after hCG stimulation", "setting": "day 9, repeated hCG stimulation", "result": "105.958 ± 2.556", "unit": "pg/mL"},
      {"measurement": "testosterone concentration after hCG stimulation", "setting": "day 16, repeated hCG stimulation", "result": "91.008 ± 14.764", "unit": "pg/mL"},
      {"measurement": "testosterone concentration after hCG stimulation", "setting": "day 23, repeated hCG stimulation", "result": "98.83 ± 3.495", "unit": "pg/mL"}
    ]}
  ]
}
